# scFv variants of Ab-14 (light chain) against a SARS-CoV-2 spike peptide

Reference: Li et al. 2023, doi:10.1038/s41467-023-39022-2. File: FLAb, binding data.

Antigen: PDVDLGDISGINAS, a 14-residue peptide of the SARS-CoV-2 spike HR2 region.

Parent scFv Ab-14: VH joined to VL by a 15-residue (Gly4Ser)3 linker. Changes lie in the light chain CDRs alone.
VH: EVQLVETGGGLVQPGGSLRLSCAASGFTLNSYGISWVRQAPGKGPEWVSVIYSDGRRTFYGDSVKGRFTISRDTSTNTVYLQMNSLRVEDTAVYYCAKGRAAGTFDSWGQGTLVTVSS
VL: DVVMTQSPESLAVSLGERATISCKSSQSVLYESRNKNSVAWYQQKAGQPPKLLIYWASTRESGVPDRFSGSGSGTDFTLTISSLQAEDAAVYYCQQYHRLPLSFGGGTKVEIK

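Phage display of a naive human antibody library on the peptide gave the parent. These sequences belong to a second round, designed from the earlier measurements on random variants of the parent. Their group label is 14L_En_HC (En: ensemble of fine-tuned language models; HC: hill climbing; a sequence that several methods proposed may carry one label only). The scFvs were displayed on barcoded MATa yeast, the peptide on MATalpha yeast. Mating (16 h, 30 °C) was followed by selection of diploids and sequencing of their barcodes. The ratio of observed to expected reads was calibrated, replicate by replicate, on BCL2-family standards whose Kd was known from biolayer interferometry. Each pool was mated in six replicate cultures.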

Each variant is given by its three light chain CDRs, as the data file delimits them; those of the parent are KSSQSVLYESRNKNSVA, WASTRES, QQYHRLPLS. Scale: log10 of Kd in nM, estimated from mating counts; low values are strong binders. A mean of the replicates is given; it leaves out those without a signal. "n.d." marks a missing value. The strain was present, yet no cells mated with the target were sequenced in that replicate, which points to weak or no binding. The authors' rule: three or more of the six replicates give a measured affinity, fewer mean a poor binder. Values of this round are not directly comparable with the first-round values of the same sequences. The parent sequence was in this pool as ten entries: three were never detected, three once, and four in most replicates, with averages from 0.34 to 2.37. Empty control strains, which show no peptide, gave a signal in 4% of pairings with all light chain designs; the median was 2.64 and 95% of these signals were weaker than 1.59. No background was subtracted. For each scFv, signals with the empty controls are counted beside the result, with their mean in brackets.

| CDR-L1 | CDR-L2 | CDR-L3 | replicates, log10 nM | mean, log10 nM | empty controls |
|---|---|---|---|---|---|
| ILSQSVLMGMHLKNSVA | QATMRFN | QQYHRLPLM | n.d. 1.94 n.d. 1.29 n.d. n.d. | 1.61 | 0/18 |
| MISQLFMYGSRNYNSIA | QAEEREK | QQYDRLPLE | 3.62 n.d. n.d. 2.50 3.78 3.05 | 3.24 | 1/18 (2.41) |
| KLSMSYRYETEEKNSIA | ELVTRAS | QQYHRLPLS | 0.89 0.50 0.12 0.74 1.22 1.09 | 0.76 | 0/18 |
| TIGQVMHYESRNRNSVA | QTSTREE | QDYDRLPLS | 0.64 1.50 1.51 1.60 1.67 n.d. | 1.38 | 0/18 |
| KIGGVTNGISVSKNSVA | EQSTRED | QQYNRLPLS | 0.20 0.17 0.34 0.04 0.00 0.45 | 0.20 | 0/18 |
| MIAAGLRGVGRNKNSVA | NAQTRES | QHYHRLPLS | 2.64 2.85 4.00 2.42 2.78 2.51 | 2.87 | 0/18 |
| IIGQSMLYESATHNSIA | QTSTREE | QQYHHLPLS | 0.52 0.55 0.49 0.32 0.37 0.81 | 0.51 | 0/18 |
| KISYQYRFEQLAKNNIA | EVVTRLK | QQYHRLPLS | 2.58 1.54 1.61 2.24 1.96 1.73 | 1.94 | 2/18 (2.46) |
| HISMSMNYLSRNKNSIA | EESTRED | QQYYRLPLS | -0.25 -0.33 -0.44 -0.62 -0.59 -0.40 | -0.44 | 1/18 (2.06) |
| IISQSVLGGYHNKNSVA | QTSERGQ | QQYDRLPLS | 1.03 0.48 -0.02 0.32 0.14 0.59 | 0.42 | 0/18 |
| TISDLIMVASRNKNSVA | DESARPD | QQYHRLPLS | 0.29 0.28 0.34 -0.07 -0.04 0.21 | 0.17 | 0/18 |
| ILYDSVGNLSRNKNSVA | DNSTRES | QQYDRLPLS | n.d. n.d. 2.85 n.d. n.d. n.d. | 2.85 | 1/18 (2.00) |
| HISQMVMYGSCNPNNVA | QVSTREE | QQYHRLPLS | 0.48 0.57 0.45 0.35 0.38 0.58 | 0.47 | 0/18 |
| KISQMSNFESTHINAVA | QMSTREE | QQYFRLPLS | 0.51 0.51 0.44 0.49 0.64 0.63 | 0.54 | 0/18 |
| SIYDATLMESRNKNPIA | DVSTRPS | QQYHRLPLS | 0.37 0.18 0.28 0.27 0.22 0.10 | 0.24 | 2/18 (2.07) |
| TLSDTVMQGSYYRNSVA | QESTRAD | QQYHHLPLS | 0.39 -0.04 0.56 0.09 -0.19 0.20 | 0.17 | 1/18 (1.95) |
| KIGQMTTYHSQVGNSIA | QTSTREE | QQYHRLPLS | 2.38 2.00 1.68 2.09 1.52 3.32 | 2.17 | 1/18 (2.43) |
| MFSQLFMYGSRNRNSVA | QASTRES | QQYDRLPLI | 1.13 0.83 1.17 1.27 0.86 1.28 | 1.09 | 2/18 (2.53) |
| MISESVMYESRNKNSVA | DNSTRED | QCYDRLPLS | n.d. n.d. n.d. n.d. n.d. n.d. | n.d. | 2/18 (2.63) |
| TLSQTMDMTSRNVNSVA | DLTTRGN | QQYHRLPLS | 0.34 0.16 0.01 0.12 0.26 0.34 | 0.20 | 2/18 (2.84) |
| KLGDMVHTESRNKNSIA | DMRTREN | QQYYRLPLS | -0.05 0.00 -0.46 -0.08 -0.36 -0.39 | -0.22 | 0/18 |
| ILYESVGTLSRNTNSVA | DNSTREK | QQYDRLPLS | 1.83 1.67 1.15 2.45 2.14 1.70 | 1.82 | 1/18 (3.14) |
| TISQSFLMENQFKNSVA | QASTREQ | QCYDRLPLS | 2.69 1.56 1.65 1.65 2.08 2.33 | 1.99 | 0/18 |
| SLMQVAGYESNNHNSIA | DLRTRES | QQYHRLPLS | -0.14 0.29 0.11 -0.05 -0.03 -0.07 | 0.02 | 2/18 (3.06) |
| MISQLFMYGSRNYNSIA | QAETREK | QQYDRLPLE | 2.01 1.71 1.71 1.78 1.36 2.21 | 1.80 | 2/18 (2.37) |
| TLTQVQGMESHNADSVA | DLSTRGS | QQYHRLPLS | 0.49 0.63 0.40 0.53 0.60 0.64 | 0.55 | 0/18 |
| HLGDTVMQGSYYRNSVA | QESTRAD | QQYHHLPLS | 0.35 0.22 0.34 -0.21 0.06 0.34 | 0.19 | 2/18 (3.26) |
| TISQMFLGESRNRNSVA | QASTRNS | QSYDRLPLS | 0.56 0.77 0.50 0.63 0.53 0.48 | 0.58 | 1/18 (3.20) |
| KLRMSTAYLMENKNSVA | ELTTRGN | QQYFRLPLS | 0.68 1.00 0.74 0.81 0.99 0.86 | 0.85 | 0/18 |
| ALSQSMDMTSRNHNSVA | DLTTREN | QQYHRLPLS | -0.01 0.02 -0.14 -0.01 0.06 -0.02 | -0.02 | 2/18 (2.96) |
| KLLQVTGYESYVRNSVA | QMSTRAE | QDYHRLPLS | 0.93 0.36 0.46 0.72 0.84 0.64 | 0.66 | 1/18 (2.17) |
| KLPAATMQESVSKNNVA | ELSTRGS | QQYHRLPLS | 1.37 1.33 2.35 1.07 0.99 0.73 | 1.31 | 0/18 |
| MLGDTVMQGMYSRNSVA | QESTRAD | QQYHHLPLS | 0.33 0.32 0.26 0.12 0.31 0.45 | 0.30 | 2/18 (2.72) |
| TLTQVQGMSSHNKNSVA | DLSTRGS | QQYHRLPLS | 0.64 0.55 0.45 0.67 0.30 0.70 | 0.55 | 0/18 |
| QLLFATMQGTYNRNSVA | HAETRED | QSYHRLPLS | 1.30 1.37 1.68 2.08 1.59 1.81 | 1.64 | 1/18 (2.65) |
| KLGDMVHTESRNKNSIA | DMRTRES | QQYHRLPLS | 0.14 0.09 0.01 -0.16 -0.08 0.06 | 0.01 | 0/18 |
| KITQMVTGEQHNKNSIA | QMTTREG | QQYHRLPLS | 0.85 0.91 0.72 1.36 1.10 1.09 | 1.00 | 0/18 |
| SITQLVNYGSRNKNSVA | QMSTRES | QQYDRLPLS | 0.04 0.32 0.28 0.23 0.17 0.38 | 0.24 | 1/18 (4.26) |
| NVGQLMDGETRNRNNVA | HQTTRED | QHYHRLPLS | 0.16 0.07 0.17 -0.05 0.06 -0.02 | 0.07 | 1/18 (3.14) |
| KVYASTMLESHDKNSIA | DLSTRGN | QQYHRLPLS | 0.25 0.14 -0.15 0.04 -0.24 0.21 | 0.04 | 1/18 (3.82) |
| KIATMGEHFSTNHSAIA | QASTREQ | QQYHRLPIS | 1.16 1.06 0.99 0.93 1.25 1.31 | 1.12 | 0/18 |
| TLVQSVMGSSRTKNSVA | NAETRED | QHYHRLPLS | 0.61 0.69 n.d. 2.01 2.23 1.60 | 1.43 | 0/18 |
| KIGSMTNGEKFHSNSVA | QTSTREE | QQYHRLPLS | 0.41 0.45 0.45 0.28 0.27 0.70 | 0.43 | 2/18 (2.51) |
| KISYQYRFEQLGKNNIA | EVVTRLK | QQYHRLPLS | n.d. n.d. n.d. n.d. n.d. n.d. | n.d. | 0/18 |
| KIAQSMAMTSHHINSVA | QSTTREE | QQYNHLPLS | 0.26 0.14 0.04 -0.09 0.12 0.48 | 0.16 | 3/18 (2.50) |
| IFSQSVLMGNLAKNSVA | QASTRFS | QQYHRLPLI | 0.97 1.14 1.37 1.06 0.89 1.44 | 1.15 | 0/18 |
| HISEMIFAQMKARNSVA | ENNTREA | QQYDRLPLS | n.d. n.d. n.d. n.d. n.d. n.d. | n.d. | 0/18 |
| MLSDSVKMESRNTNSVA | DNSTRGS | QQYDRLPLS | 2.58 2.02 n.d. n.d. n.d. n.d. | 2.30 | 0/18 |

The closing 5 entries, repeated:

{"CDR-L1": "KISYQYRFEQLGKNNIA", "CDR-L2": "EVVTRLK", "CDR-L3": "QQYHRLPLS", "replicates, log10 nM": "n.d. n.d. n.d. n.d. n.d. n.d.", "mean, log10 nM": "n.d.", "empty controls": "0/18"}
{"CDR-L1": "KIAQSMAMTSHHINSVA", "CDR-L2": "QSTTREE", "CDR-L3": "QQYNHLPLS", "replicates, log10 nM": "0.26 0.14 0.04 -0.09 0.12 0.48", "mean, log10 nM": "0.16", "empty controls": "3/18 (2.50)"}
{"CDR-L1": "IFSQSVLMGNLAKNSVA", "CDR-L2": "QASTRFS", "CDR-L3": "QQYHRLPLI", "replicates, log10 nM": "0.97 1.14 1.37 1.06 0.89 1.44", "mean, log10 nM": "1.15", "empty controls": "0/18"}
{"CDR-L1": "HISEMIFAQMKARNSVA", "CDR-L2": "ENNTREA", "CDR-L3": "QQYDRLPLS", "replicates, log10 nM": "n.d. n.d. n.d. n.d. n.d. n.d.", "mean, log10 nM": "n.d.", "empty controls": "0/18"}
{"CDR-L1": "MLSDSVKMESRNTNSVA", "CDR-L2": "DNSTRGS", "CDR-L3": "QQYDRLPLS", "replicates, log10 nM": "2.58 2.02 n.d. n.d. n.d. n.d.", "mean, log10 nM": "2.30", "empty controls": "0/18"}